{
  "sequences": {"note": "The chains behind the UniProt entries cited, without tags or fusion partners. Residues count along the entry.", "UniProt P02745, 23-245": "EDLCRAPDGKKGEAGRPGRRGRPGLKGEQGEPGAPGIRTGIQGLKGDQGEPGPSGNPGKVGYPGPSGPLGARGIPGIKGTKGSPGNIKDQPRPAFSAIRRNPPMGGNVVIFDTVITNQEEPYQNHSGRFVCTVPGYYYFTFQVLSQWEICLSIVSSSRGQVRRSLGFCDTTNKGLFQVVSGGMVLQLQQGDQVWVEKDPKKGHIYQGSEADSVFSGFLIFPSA", "human C1q, the first subcomponent of the C1 complex of the classical pathway of complement activation, UniProt P02746, 28-253": "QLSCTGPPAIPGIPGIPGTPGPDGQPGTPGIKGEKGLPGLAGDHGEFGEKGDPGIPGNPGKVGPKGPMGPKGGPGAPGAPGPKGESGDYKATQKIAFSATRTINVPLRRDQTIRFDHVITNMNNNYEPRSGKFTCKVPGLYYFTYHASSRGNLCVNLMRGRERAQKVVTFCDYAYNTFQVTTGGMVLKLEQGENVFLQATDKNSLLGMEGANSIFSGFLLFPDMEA", "human C1q, the first subcomponent of the C1 complex of the classical pathway of complement activation, UniProt P02747, 29-245": "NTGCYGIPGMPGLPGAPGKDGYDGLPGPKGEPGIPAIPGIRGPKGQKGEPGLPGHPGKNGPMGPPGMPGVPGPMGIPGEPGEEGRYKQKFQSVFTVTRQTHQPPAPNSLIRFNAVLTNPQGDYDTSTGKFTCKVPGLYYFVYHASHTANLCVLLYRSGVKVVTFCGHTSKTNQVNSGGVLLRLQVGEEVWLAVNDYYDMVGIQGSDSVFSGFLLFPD"},
  "source": "paper PMC9537296",
  "about": "“A novel glucagon analog with an extended half-life, HM15136, normalizes glucose levels in rodent models of congenital hyperinsulinism” (Scientific Reports, 2022)",
  "target": "IgG1 (=I.V.-Globulin SN)",
  "assay": "SPR; BIACORE T200; I.V.-Globulin SN, HMC001 and HM15136 immobilised on a CM5 chip (target 3000 RU); C1q flowed over at 3.125-50 nM in running buffer (HBS-EP); steady-state affinity fit",
  "data": [
    {"substance": "human C1q, the first subcomponent of the C1 complex of the classical pathway of complement activation (from UniProt P02745 23-245; P02746 28-253; P02747 29-245)", "values": [
      {"measurement": "Kd", "value": 31.1, "unit": "nM"}
    ]}
  ]
}
